How the values were obtained:
Assay in all cases: Kinase Profiling Assay
Assay type in all cases: biochemical
Details in all cases: peptide 100 μM
ACK1(h) = ACK1(h) (Homo sapiens, UniProt Q07912)
Procedure: (§1) Every kinase activity measurement was conducted in duplicate.
(§2) Specifically, in these assays, a positively charged substrate is phosphorylated with a radiolabeled phosphate group from an ATP if the kinase is not inhibited by an inhibitor peptide. The positively charged substrate then is attracted to a negatively charged filter membrane, quantified with a scintillation counter, and compared to a 100% activity control.
(§3) In addition to determining the IC50 of the compound, the specificity of MK2 inhibitory peptides was assessed by examining activities of all 266 human kinases available for testing in the Millipore kinase profiling service (Table 1).

GRK5(h) = molecular target: T1, GRK5(h) (Homo sapiens, UniProt P34947)
T1 construct: purchased Millipore
Procedure: as §1, §2, §3

JAK3(h) = molecular target: T2, JAK3(h) (Homo sapiens, UniProt P52333)
T2 construct: purchased Millipore
T2 sequence (P52333 1-1124): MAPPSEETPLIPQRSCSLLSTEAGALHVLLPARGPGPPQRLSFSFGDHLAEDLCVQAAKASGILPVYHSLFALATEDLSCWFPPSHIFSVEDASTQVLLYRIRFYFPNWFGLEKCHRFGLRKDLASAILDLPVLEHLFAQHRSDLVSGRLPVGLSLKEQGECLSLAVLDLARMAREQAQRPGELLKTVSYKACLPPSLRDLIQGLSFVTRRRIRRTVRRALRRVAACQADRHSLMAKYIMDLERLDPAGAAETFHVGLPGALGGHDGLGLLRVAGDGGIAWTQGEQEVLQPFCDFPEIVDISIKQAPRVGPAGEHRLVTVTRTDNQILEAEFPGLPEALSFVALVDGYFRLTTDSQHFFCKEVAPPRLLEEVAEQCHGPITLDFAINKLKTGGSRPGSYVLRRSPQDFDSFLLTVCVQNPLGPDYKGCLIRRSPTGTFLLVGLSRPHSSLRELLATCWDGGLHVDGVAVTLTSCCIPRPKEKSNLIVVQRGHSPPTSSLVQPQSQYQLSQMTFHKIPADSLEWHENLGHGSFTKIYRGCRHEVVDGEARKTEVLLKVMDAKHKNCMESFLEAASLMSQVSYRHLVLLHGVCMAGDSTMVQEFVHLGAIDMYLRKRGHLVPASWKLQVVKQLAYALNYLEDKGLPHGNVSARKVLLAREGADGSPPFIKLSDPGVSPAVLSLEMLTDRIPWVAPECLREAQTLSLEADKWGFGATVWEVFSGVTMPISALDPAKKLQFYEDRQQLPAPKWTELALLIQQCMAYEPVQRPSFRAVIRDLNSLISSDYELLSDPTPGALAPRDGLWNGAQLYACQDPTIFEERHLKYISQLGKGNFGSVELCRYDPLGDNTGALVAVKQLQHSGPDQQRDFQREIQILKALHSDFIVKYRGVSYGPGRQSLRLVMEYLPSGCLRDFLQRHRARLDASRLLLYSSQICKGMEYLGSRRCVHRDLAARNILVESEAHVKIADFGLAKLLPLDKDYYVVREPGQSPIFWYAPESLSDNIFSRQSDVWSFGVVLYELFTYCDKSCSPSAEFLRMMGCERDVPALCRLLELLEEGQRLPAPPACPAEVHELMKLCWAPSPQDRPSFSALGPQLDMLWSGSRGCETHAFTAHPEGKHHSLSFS
Procedure: as §1, §2, §3

MRCKα(h) = molecular target: T3, MRCKα(h) (Homo sapiens, UniProt Q5VT25)
T3 construct: purchased Millipore
Procedure: as §1, §2, §3

PKA(h) = PKA(h) (Homo sapiens, UniProt P17612)
Procedure: as §1, §2, §3

Snk(h) = molecular target: T4, Snk(h) (Homo sapiens, UniProt Q9NYY3)
T4 construct: purchased Millipore
Procedure: as §1, §2, §3

Aurora-A(h) = molecular target: T5, Aurora-A(h) (Homo sapiens, UniProt O14965)
T5 sequence (O14965 1-403): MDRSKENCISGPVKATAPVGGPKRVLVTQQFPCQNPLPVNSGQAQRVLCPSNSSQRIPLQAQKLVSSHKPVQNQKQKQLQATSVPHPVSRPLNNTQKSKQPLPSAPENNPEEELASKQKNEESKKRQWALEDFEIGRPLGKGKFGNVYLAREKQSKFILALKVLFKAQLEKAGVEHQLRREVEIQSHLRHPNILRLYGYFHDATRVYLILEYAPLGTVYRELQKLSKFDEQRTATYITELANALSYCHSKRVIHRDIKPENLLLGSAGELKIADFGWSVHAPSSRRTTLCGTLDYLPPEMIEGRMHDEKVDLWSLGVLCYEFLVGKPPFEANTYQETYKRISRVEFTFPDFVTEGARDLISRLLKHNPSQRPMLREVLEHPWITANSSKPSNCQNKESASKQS
Procedure: as §1, §2, §3

CDK1/cyclinB(h) = CDK1/cyclinB(h) (Homo sapiens, UniProt P06493)
Procedure: as §1, §2, §3

Hck(h) = molecular target: T6, Hck(h) (Homo sapiens, UniProt P08631)
T6 construct: purchased Millipore
Procedure: as §1, §2, §3

Lck(h) = molecular target: T7, Lck(h) (Homo sapiens, UniProt P06239)
T7 construct: purchased Millipore
Procedure: as §1, §2, §3

MARK1(h) = molecular target: T8, MARK1(h) (Homo sapiens, UniProt Q9P0L2)
T8 construct: purchased Millipore
Procedure: as §1, §2, §3

Rsk3(h) = molecular target: T9, Rsk3(h) (Homo sapiens, UniProt Q15349)
T9 construct: purchased Millipore
Procedure: as §1, §2, §3

VRK2(h) = VRK2(h) (Homo sapiens, UniProt Q86Y07)
Procedure: as §1, §2, §3

For FAKLAARLYRKALARQLGVAA [MMI-0300], the “% activity” value (ACK1(h)) was 104%, the “% activity” value (GRK5(h)) was 136% and the “% activity” value (JAK3(h)) was 121%. For the same compound, the “% activity” value (MRCKα(h)) was 104%, the “% activity” value (PKA(h)) was 119% and the “% activity” value (Snk(h)) was 114%.
In the case of “YARAAARQARAKALNRQLGVA (Mammal) [MMI-0200]”, the “% activity” value (Aurora-A(h)) is reported as 107%, the “% activity” value (CDK1/cyclinB(h)) is reported as 115% and the “% activity” value (Hck(h)) is reported as 107%. For the same compound, the “% activity” value (JAK3(h)) was 117%, the “% activity” value (Lck(h)) was 113% and the “% activity” value (MARK1(h)) was 102%. The “% activity” value (MRCKα(h)) was 103%, the “% activity” value (Rsk3(h)) was 109% and the “% activity” value (Snk(h)) was 109%. The “% activity” value (VRK2(h)) was 109%.
With `CC(C)C[C@H](NC(=O)[C@H](C)NC(=O)[C@H](CCCCN)NC(=O)[C@H](C)NC(=O)[C@H](CCCNC(=N)N)NC(=O)[C@H](C)NC(=O)[C@H](CCC(N)=O)NC(=O)[C@H](CCCNC(=N)N)NC(=O)[C@H](C)NC(=O)[C@H](C)NC(=O)[C@H](C)NC(=O)[C@H](CCCNC(=N)N)NC(=O)[C@H](C)NC(=O)[C@@H](N)Cc1ccc(O)cc1)C(=O)N[C@@H](C)C(=O)N[C@@H](CCCNC(=N)N)C(=O)N[C@@H](CCC(N)=O)C(=O)N[C@@H](CC(C)C)C(=O)NCC(=O)N[C@H](C(=O)N[C@@H](C)C(=O)N[C@@H](C)C(=O)O)C(C)C` [MMI-0100] the “% activity” value (ACK1(h)) was 106%, the “% activity” value (Aurora-A(h)) was 120% and the “% activity” value (CDK1/cyclinB(h)) was 96%. For the same compound, the “% activity” value (GRK5(h)) was 117%, the “% activity” value (Hck(h)) was 354% and the “% activity” value (Lck(h)) was 346%. For the same compound, the “% activity” value (MARK1(h)) was 109%, the “% activity” value (PKA(h)) was 138% and the “% activity” value (Rsk3(h)) was 76%. The “% activity” value (VRK2(h)) was 112%.
